In US20260207519A1, “ISOLATED TARGETED DELIVERY SYSTEM FOR THE TREATMENT OF OVARIAN CANCER” (CELLIS SP. Z O.O. [LTD.], priority 2022, published 2026):

System: SKOV-3_luc tumors
Assay: 1st in vivo study: SKOV-3_luc tumors implanted orthotopically
Parameters: species or system female Balb/c nude mice
Conditions: day 42, supine images; one-Way ANOVA with Tukey's post-hoc test

Trastuzumab
BLI values vs vehicle: significantly smaller
